Tests used:
[1] = target: T1, C5a anaphylatoxin chemotactic receptor 1 (Homo sapiens, UniProt P21730); assay: (§1) Inhibition of binding of [125I]C5a to human polymorphonuclear leukocyte C5a receptor
T1 sequence (P21730 whole entry): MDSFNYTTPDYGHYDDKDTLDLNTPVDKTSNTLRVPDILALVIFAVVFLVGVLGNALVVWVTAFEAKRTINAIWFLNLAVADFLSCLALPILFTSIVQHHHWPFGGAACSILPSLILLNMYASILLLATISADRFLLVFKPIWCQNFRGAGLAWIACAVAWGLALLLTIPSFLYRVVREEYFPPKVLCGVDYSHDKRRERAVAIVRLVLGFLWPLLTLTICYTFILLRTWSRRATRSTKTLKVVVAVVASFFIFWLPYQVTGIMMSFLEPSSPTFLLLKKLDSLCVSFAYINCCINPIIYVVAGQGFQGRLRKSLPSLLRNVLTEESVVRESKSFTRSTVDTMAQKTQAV
How it was run: (§2)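 Competition binding on fresh human PMNs (0.2 × 10⁶) with [¹²⁵I]C5a (~50 pM). Buffer: 50 mM HEPES, 1 mM CaCl₂, 5 mM MgCl₂, 0.5% BSA, 0.1% bacitracin, 100 μM PMSF. Incubated 60 min at 4 °C, then filtered, washed and γ-counted. Nonspecific binding defined with 1 mM peptide or 100 nM C5a.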

[2] = target: T1, C5a anaphylatoxin chemotactic receptor 1; assay: as §1; how it was run: as §2; remark: listed apart in the source

Q: `CN[C@@H](Cc1ccccc1)C(=O)N[C@@H](CCCCN)C(=O)N1CCCC1C(=O)N[C@H](CC1CCCCC1)C(=O)N[C@@H](Cc1c[nH]c2ccccc12)C(=O)N[C@H](CCCN=C(N)N)C(=O)O` (single isomer, unassigned) was tested. Which IC50 [1] did it give?
A: 2000 nM

Q: What about the IC50 [2] of the same molecule?
A: 2000 nM

Reference: ChEMBL document CHEMBL1132227, “Low-molecular-weight peptidic and cyclic antagonists of the receptor for the complement factor C5a” (J Med Chem, 1999)
